Results on one compound are retold here after US20080076760A1, “2,3,4,5-TETRAHYDRO-1H-1,5-BENZODIAZEPINE DERIVATIVE AND MEDICINAL COMPOSITION” (priority 2004, published 2008).

Protein sequences, listed by entry. Tags and fused reporters are not part of them.
UniProt P37288, whole entry: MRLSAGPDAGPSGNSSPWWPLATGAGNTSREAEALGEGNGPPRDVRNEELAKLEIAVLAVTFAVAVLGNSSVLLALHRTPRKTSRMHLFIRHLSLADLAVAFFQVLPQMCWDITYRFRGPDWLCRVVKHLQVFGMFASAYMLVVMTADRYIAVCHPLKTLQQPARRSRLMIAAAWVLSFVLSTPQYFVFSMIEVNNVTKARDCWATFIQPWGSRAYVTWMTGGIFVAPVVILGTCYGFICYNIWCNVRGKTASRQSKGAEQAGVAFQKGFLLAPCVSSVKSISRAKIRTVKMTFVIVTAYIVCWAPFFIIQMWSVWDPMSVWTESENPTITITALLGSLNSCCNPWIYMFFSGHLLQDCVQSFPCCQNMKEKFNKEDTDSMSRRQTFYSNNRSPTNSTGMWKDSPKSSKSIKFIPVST
UniProt P30518, whole entry: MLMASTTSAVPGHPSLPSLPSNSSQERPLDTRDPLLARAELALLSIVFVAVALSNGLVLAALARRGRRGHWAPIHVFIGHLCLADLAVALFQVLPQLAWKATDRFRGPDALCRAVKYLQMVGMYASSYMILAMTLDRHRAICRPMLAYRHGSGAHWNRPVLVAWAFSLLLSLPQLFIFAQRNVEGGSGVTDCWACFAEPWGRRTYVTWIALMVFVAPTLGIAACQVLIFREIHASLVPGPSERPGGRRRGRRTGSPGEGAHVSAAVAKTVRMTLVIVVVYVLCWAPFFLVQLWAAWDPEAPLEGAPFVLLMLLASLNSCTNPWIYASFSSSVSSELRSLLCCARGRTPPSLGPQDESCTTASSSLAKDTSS

For assay [1], the target named is human vasopressin V1a receptor (Homo sapiens, UniProt P37288). The experiment in a line: Receptor binding study, [3H]AVP displacement on CHO cell membranes, human V1a. The note with it: read-out: Human V1a Ki, CHO cell membrane, 25° C., one hour.
Assay [2] deals with human vasopressin V2 receptor (Homo sapiens, UniProt P30518). The experiment in a line: Receptor binding study, [3H]AVP displacement on CHO cell membranes, human V2. The conditions noted are these: read-out: Human V2 Ki, CHO cell membrane, 25° C., one hour.

Broadly, the Ki is a measure of affinity in units of concentration, obtained from inhibition or displacement. `CC1CCN(C(=O)c2ccc(-c3ccc4[nH]ccc4c3)c(OCCCN3CCCC3=O)c2)c2ccccc2N1` (centres unmarked): the Ki in assay [1] was determined as 0.36 nM; in assay [2], 2.4 nM.
